The source of these data is article PMC5385568.

For the assay, the target named is GST-AP-2αA appendage domain. Briefly: pull-down; recombinant purified GST-AP-2αA/C appendage domains (10 μg) with His6-LC3b (5 μg); 150 mM NaCl, 10 mM HEPES pH 7.5, 5 mM imidazole, 2 mM DTT, 0.005% Triton X-100; 1 h at 4 °C; immunoblotting for LC3b. A general note: A western blot detects proteins with antibodies after separation by electrophoresis.

Turning to “purified recombinant LC3b-His6 (from UniProt Q9GZQ8 1-120) (natural protein)”, the fold preference over GST-AP-2αC is 3 fold.
